Values quoted from earlier work, collected in publication PMC3729426 (Chemistry (Weinheim an der Bergstrasse, Germany), 2012).

System: MDCK epithelial cells
Settings: cited from earlier work

For nonaarginine, the “half life of proteolytic degradation” value is listed as ~ 1400 minutes.
